From article PMC5253357, “Racemic Salsolinol and its Enantiomers Act as Agonists of the μ-Opioid Receptor by Activating the Gi Protein-Adenylate Cyclase Pathway” (Frontiers in Behavioral Neuroscience, 2017)

Amino acid sequences for entries named in this document (tags omitted).
UniProt P35372, whole entry: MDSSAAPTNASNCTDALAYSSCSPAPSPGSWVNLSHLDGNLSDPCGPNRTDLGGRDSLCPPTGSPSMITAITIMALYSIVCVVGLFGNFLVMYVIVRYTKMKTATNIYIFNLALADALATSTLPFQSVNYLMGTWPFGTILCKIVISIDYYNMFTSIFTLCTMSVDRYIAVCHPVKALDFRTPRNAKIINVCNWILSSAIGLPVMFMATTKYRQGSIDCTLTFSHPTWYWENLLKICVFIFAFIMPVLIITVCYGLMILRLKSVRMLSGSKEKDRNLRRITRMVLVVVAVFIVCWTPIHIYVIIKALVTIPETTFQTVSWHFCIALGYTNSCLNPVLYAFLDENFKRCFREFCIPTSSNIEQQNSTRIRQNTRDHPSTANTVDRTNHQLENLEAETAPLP

Biological target: T1, human μ-opioid receptor (Homo sapiens, UniProt P35372)
T1 construct: host or cells: CHO-K1
Experiment: cell-based
Source text: To assess the activation of the μ-opioid receptor through the recruitment of the β-arrestin signaling pathway, we used a PathHunter® eXpress β-Arrestin GPCR chemiluminescent assay (DiscoverX) following the manufacturer instructions. In this system, the human μ-opioid receptor is fused to a small fragment of β-galactosidase (PK) and co-expressed in cells expressing a fusion protein of β-arrestin and the complementary fragment of β-galactosidase (EA). Activation of the μ-opioid receptor stimulates binding of β-arrestin to the PK-tagged receptor allowing the complementation of the two enzyme fragments of β-galactosidase. This action leads to an activation of the enzyme that can be measured using a chemiluminescent reagent resulting in luminescence, which is proportional to the recruitment of β-arrestin. […] The resulting luminescence was determined with a microplate reader Synergy HT (Biotek).
The fitting of the data to the correlation was assessed by its corresponding coefficient of determination (R^2), using GraphPad Prism (San Diego, CA, USA).

## CC(C)C[C@@H](NC(=O)[C@H](Cc1ccccc1)NC(=O)CNC(=O)[C@@H](C)NC(=O)[C@@H](N)Cc1ccc(O)cc1)C(=O)O [DADLE, [D-Ala^2, D-Leu^5]-Enkephalin, reference compound]
  EC50: 1 µM
